Data on two compounds can be found in patent US7332596B1 (priority 1999, dated 2008).

This series in a line: gel assay and MALDI-TOF of proteolysis by potato intercellular wash fluid. As to conditions: 5 minutes in pIWF; relative to the other FCWP proteins.

For `CC(C)C[C@H](NC(=O)CNC(=O)[C@@H](NC(=O)[C@H](CCCCN)NC(=O)[C@@H](N)C(C)C)C(C)C)C(=O)N[C@@H](C)C(=O)N[C@H](C(=O)N[C@@H](CCCCN)C(=O)N[C@@H](C)C(=O)N[C@@H](CCC(=O)O)C(=O)N[C@@H](CCCNC(=N)N)C(=O)N[C@@H](C)C(=O)N[C@@H](CO)C(=O)N[C@@H](CCCNC(=N)N)C(=O)N[C@@H](CCC(N)=O)C(=O)N[C@@H](CCC(N)=O)C(=O)N[C@@H](CCCNC(=N)N)C(=O)N[C@@H](CCCCN)C(=O)N[C@@H](CCC(N)=O)C(=O)N[C@@H](CCCNC(=N)N)C(=O)N[C@@H](CCCCN)C(=O)N[C@@H](CC(N)=O)C(=O)N[C@@H](CCCNC(=N)N)C(=O)N[C@@H](CCC(N)=O)C(=O)N[C@@H](CCCCN)C(=O)N[C@H](C(=O)N[C@@H](CCCNC(=N)N)C(=O)N[C@@H](CCCNC(=N)N)C(=O)NCC(=O)N[C@H](C(=O)N[C@@H](CCCNC(=N)N)C(=O)N[C@@H](CCCCN)C(=O)N[C@H](C(=O)N[C@@H](CCCCN)C(=O)NCC(=O)N[C@@H](C)C(=O)N[C@@H](CCCCN)C(=O)N[C@@H](C)C(=O)N[C@@H](CCCCN)C(=O)N[C@@H](CCCCN)C(=O)O)C(C)C)[C@@H](C)O)[C@@H](C)O)[C@@H](C)O`, the “resistance to proteolysis in potato intercellular wash fluid in vitro” value is “more resistant”. To `CC(C)C[C@H](NC(=O)CNC(=O)[C@@H](NC(=O)[C@H](CCCCN)NC(=O)[C@@H](N)C(C)C)C(C)C)C(=O)N[C@@H](C)C(=O)N[C@H](C(=O)N[C@@H](CCCCN)C(=O)N[C@@H](C)C(=O)N[C@@H](CCC(=O)O)C(=O)N[C@@H](CCCNC(=N)N)C(=O)N[C@@H](C)C(=O)N[C@@H](CO)C(=O)N[C@@H](CCCNC(=N)N)C(=O)N[C@@H](CCC(N)=O)C(=O)N[C@@H](CCC(N)=O)C(=O)N[C@@H](CCCNC(=N)N)C(=O)N[C@@H](CCCCN)C(=O)N[C@@H](CCC(N)=O)C(=O)N[C@@H](CCCNC(=N)N)C(=O)N[C@@H](CCCCN)C(=O)N[C@@H](CC(N)=O)C(=O)N[C@@H](CCCNC(=N)N)C(=O)N[C@@H](CCC(N)=O)C(=O)N[C@@H](CCCCN)C(=O)N[C@H](C(=O)N[C@@H](CC(C)C)C(=O)N[C@@H](CCCNC(=N)N)C(=O)NCC(=O)N[C@H](C(=O)N[C@@H](CCCNC(=N)N)C(=O)N[C@@H](CCCCN)C(=O)N[C@H](C(=O)N[C@@H](CCCCN)C(=O)NCC(=O)N[C@@H](C)C(=O)N[C@@H](CCCCN)C(=O)N[C@@H](C)C(=O)N[C@@H](CCCCN)C(=O)N[C@@H](CCCCN)C(=O)O)C(C)C)[C@@H](C)O)[C@@H](C)O)[C@@H](C)O` belongs “more resistant”.
